Compound activity (PubChem)
Mito fusion act – mitochondrial division inhibition or fusion activation | S. cerevisiae fusion-defective mutant growth rescue, CellTiterGlo 48 h | Potency, µM (doses to about 46.1 µM), inactives show top-dose growth rescue (activation), actives largely listed as activators | actives 0.23% (n = 320,000) | AID 485298; further: potency means the concentration at half of the fitted maximal effect; % of control where 0% means no effect; nearly all actives have a fitted effect of over 45% in size
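Compounds are tested for their ability to restore growth of mitochondrial fusion-defective yeast strains at non-permissive 37C in YPEG medium over 48 hours. Viability is quantified by luciferase luminescence.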
miR-21 reporter – raises the signal of a miR-21 reporter. Potency, µM (highest dose often 38.3 µM), without a hit: top-dose reporter change, positive = more light. 340,000 tested, under 10 active. HeLa miR-21 FLuc reporter, luciferase, 48 h; active = well fitted rising curve with a large enough effect; inconclusive = small, poorly fitted or top-dose-only effect; inactive = no such curve, though single readings can be large or run the other way;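 further: % of control where 0% means no effect; miR-21 action dims this reporter so a rising signal means less miR-21 action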
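Compounds were titrated across several concentrations (up to approximately 40 uM) and incubated 48 hours with HeLa miR-21-FLuc reporter cells (miR-21 target sequence downstream of FLuc, endogenous miR-21). Readout was firefly luciferase luminescence after lytic detection reagent.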
RXFP1 ag – RXFP1 (human) receptor agonism. Q9HBX9. HEK293T-RXFP1 cAMP TR-FRET, 30 min; response scale: percent of porcine relaxin response, buffer zero. Potency, µM (series often up to 57.5 µM), for the others: at the highest dose activation, hits mostly activators. actives 0.3% (n = 370,000); further: potency means the concentration at half of the fitted maximal effect; on the % scale 0 is the no-effect control and ±100 the full control effect; nearly all actives have a fitted effect of over 60% in size
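cAMP rise read by TR-FRET after 30 min, 37C compound exposure (up to 58 uM) in RXFP1-transfected HEK293 cells with Ro 20174 present. EC50 from Hill-equation fits, with 29 nM porcine relaxin as 100% and buffer as basal.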
S-ASM inh – inhibitors of human secretory acid sphingomyelinase | P17405 | actives 0.006% (n = 340,000) | placental ASM, HMU-PC fluorogenic substrate, 60 min | Potency, µM (highest dose often 57.5 µM), inactives show top-dose activity change, negative = inhibition, usual class: inhibitors; further: potency means the concentration at half of the fitted maximal effect
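Steps: dispense placental human ASM, pin compound, wait 10 min at room temperature, add HMU-PC0 substrate at 9 uM final, incubate 60 min at 37 °C, add stop solution raising pH to 10, read fluorescence.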
ERG-DNA inh – blocks human ERG Ets domain binding to DNA; fluorescence polarization, His-ERG Ets domain / labelled DNA; Potency, µM (highest dose often 76.9 µM), for the others: top-dose FP activity, negative = inhibition, most hits filed as inhibitors; actives 0.028% (n = 370,000); active means well fitted inhibition curve with a large enough effect in the polarisation, with a control signal flat; inconclusive means small, poorly fitted or top-dose-only effect, or effect the other way, or a change in a side signal; inactive means no such curve, though single readings can be large or run the other way; the % refers to the polarisation;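 further: polarization taken with two DNA probes labelled with fluorescein and Texas red; potency means the concentration at half of the fitted maximal effect; % of control where 0% means no effect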
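His-tagged ERG Ets domain (1 uM in the protein solution; 300mM KCl, 50mM Tris-HCl, 1mM EDTA, 1mM DTT, pH 7.5) received compound, then a probe mix of 5 nM fluorescein-DNA and 100nM Texas-615-DNA. Fluorescence polarization was read for both dyes.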
RXFP1 antag – RXFP1 (human) relaxin receptor antagonism; actives 0.59% (n = 350,000); Q9HBX9; AID 1259400; HEK293-RXFP1, relaxin-stimulated cAMP HTRF, 30 min; hits give low values; activity change, negative = inhibition, % at 57.5 µM;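 active means activity change of -60% or lower, but not beyond a set lower limit; inconclusive means change between -60% and -40%, or beyond the set limit; inactive means change above -40%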; further: on the % scale 0 is the no-effect control and ±100 the full control effect
* = called active by the depositor; ? = inconclusive; nt = no result given. Compounds with a hit are over-represented: about 0.72% of the library has one in this group of screens. Unless noted, the call rests on the fitted dose curve; in most records, active means well fitted curve in the direction sought with a large enough effect; inconclusive means small, poorly fitted or top-dose-only effect, or another doubt; inactive means no such curve, though single readings can be large; an effect the other way counts as inactive or inconclusive.

nr	compound	Mito fusion act	miR-21 reporter	RXFP1 ag	S-ASM inh	ERG-DNA inh	RXFP1 antag
1	Cc1cccc(-n2c(=O)c3ccccc3n(Cc3ccccc3)c2=O)c1	nt	-6%	0%	nt	-2%	nt
2	COc1cccc(-c2nnc(NC(=O)c3ccc(Cl)s3)o2)c1	3.5µM*	-15%	1%	-1%	11%	nt
3	O=C(Nc1nnc(-c2ccco2)o1)c1ccc(Cl)s1	8%	-4%	4%	-2%	6%	-6
4	O=C(CS(=O)Cc1ccco1)NC/C=C\COc1cc(CN2CCCCC2)ccn1 (stereo unspecified)	nt	nt	nt	nt	nt	-12
5	Cc1cccc2cc(CN(Cc3nnnn3C3CCCCC3)C3CCCC3)c3nnnn3c12	11µM*	-4%	3%	-7%	-14%	-16
6	Cc1sc(NC(=O)C2c3ccccc3Oc3ccccc32)c(C(=O)OC(C)C)c1C	nt	-1%	?	nt	1%	nt
7	COc1[nH]c(/N=C/c2ccccc2)c(C#N)c1C#N	0%	1%	-1%	8%	32µM*	-2
8	Cc1ccc(C2(C)CC(C)(C)N(C(=O)CSc3nnc(C)s3)c3ccccc32)cc1 (stereo unspecified)	?	17%	0%	-10%	7%	-15
9	Cc1nnc(SCC(=O)N2c3ccccc3C(C)(c3ccccc3)CC2(C)C)s1 (stereo unspecified)	16µM*	4%	0%	?	-2%	nt
10	COc1cc2c(cc1OC)CN(C(=O)[C@H](C)N[C@@H](CCc1ccccc1)C(=O)O)[C@H](C(=O)O)C2	nt	nt	nt	nt	nt	23
11	CS(=O)(=O)c1nc(-c2ccccc2)cc(C(F)(F)F)n1	-16%	?	1%	1%	-6%	-106*
12	Fc1ccc(C(c2ccc(F)cc2)N2CCNCC2)cc1	nt	nt	nt	nt	nt	-16
13	Cc1nc(SC(C)C(=O)NCC2CCCO2)c2cc(-c3ccccc3)sc2n1 (stereo unspecified)	9%	nt	1%	-3%	-9%	-69*
14	CC(Sc1ncnc2c1cnn2-c1ccccc1)C(=O)NCC1CCCO1 (stereo unspecified)	3%	-7%	2%	1%	14%	5
15	O=C(c1ccccc1)c1ccc2nc(-c3ccco3)c(-c3ccco3)nc2c1	4%	-27%	3%	118%	47%	-90*
16	Nc1cc(=O)[nH]c(SC/C=C/c2ccccc2)n1	2%	-17%	0%	-2%	1%	-1
17	O=c1cc(C(F)(F)F)nc(SC/C=C/c2ccccc2)[nH]1	?	-4%	1%	-19%	-1%	-78*
18	COc1ccc(C)cc1NC(=O)NCc1ccc2c(c1)CCN2C(=O)c1ccccc1	nt	26%	0%	nt	5%	-26
19	CCCCC(=O)Nc1nc(C)c(C(C)=O)s1	1%	-11%	8%	4%	-5%	nt
20	CCCC(=O)Nc1nc(C)c(C(C)=O)s1	5%	6%	18µM*	1%	-8%	9

Laid out differently: 4 of the compounds above
Results follow in this order: Mito fusion act, miR-21 reporter, RXFP1 ag, S-ASM inh, ERG-DNA inh, RXFP1 antag
12	Fc1ccc(C(c2ccc(F)cc2)N2CCNCC2)cc1
→ nt, nt, nt, nt, nt, -16
13	Cc1nc(SC(C)C(=O)NCC2CCCO2)c2cc(-c3ccccc3)sc2n1 (stereo unspecified)
→ 9%, nt, 1%, -3%, -9%, -69*
14	CC(Sc1ncnc2c1cnn2-c1ccccc1)C(=O)NCC1CCCO1 (stereo unspecified)
→ 3%, -7%, 2%, 1%, 14%, 5
15	O=C(c1ccccc1)c1ccc2nc(-c3ccco3)c(-c3ccco3)nc2c1
→ 4%, -27%, 3%, 118%, 47%, -90*

Following part:
#	mol	Mito fusion act	miR-21 reporter	RXFP1 ag	S-ASM inh	ERG-DNA inh	RXFP1 antag
21	O=C(CCC1CCN(Cc2ccccc2)CC1)c1ccc2c(c1)NCCCC2	nt	nt	nt	nt	nt	-35
22	COc1ccccc1CNC(=O)C1CCN(S(=O)(=O)c2ccc3c(ccn3C)c2)CC1	nt	11%	4%	nt	2%	-10
23	COc1c(C)cc(Br)cc1C(=O)Nc1cccc(NC(=O)c2ccco2)c1	20µM*	28%	2%	-2%	-4%	-4
24	Cc1ccc(NC(=O)C2C3C=CC(O3)C2C(=O)O)c(C)c1 (stereo unspecified)	-1%	-1%	0%	2%	-5%	-8
25	O=C1/C(=C/c2cccnc2)Oc2cc(OS(=O)(=O)c3ccc(F)cc3)ccc21	0%	-1%	-1%	-14%	4%	-5
26	O=C1/C(=C/c2ccncc2)Oc2cc(OS(=O)(=O)c3ccccc3)ccc21	-1%	0%	0%	-2%	17%	-82*
27	Cc1cccc(N2CCN(C(=O)CCc3nnc4n(CC(C)C)c(=O)c5ccccc5n34)CC2)c1C	nt	0%	0%	nt	1%	-17
